UUG fidelity: alters start codon recognition fidelity in yeast. S. cerevisiae UUG-firefly luciferase reporter, luminescence/redox ratio. activity score, % at 18.7 µM. 0.13% of 350,000 active. AID 602363;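 active = replicate mean at a twofold rise or more, about +100% in these data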;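 also: firefly luciferase made from a UUG start codon reports start codon fidelity; reporter light over untreated wells divided by growth signal over untreated wells; some hits fall short of that in this replicate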
S100A4 MyoIIA: S100A4-myosin IIA interaction inhibition; S100A4/TAMRA-MyoIIA peptide fluorescence polarization; inhibition, % at 10.7 µM; 0.14% of 360,000 active; AID 652163;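 active = mean inhibition of at least 70% across replicates, with every replicate also reaching that level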
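incubation = readout 5 min after mixing, signal stable up to 60 min | system = S100A4 monomer protein | buffer or medium = HEPES pH 7.2 with CaCl2, KCl, NaCl, DTT, Triton | benchmarks = neutral control DMSO, positive control TFP | also added = fluorescent myosin IIA peptide, 5 nM | compound dosing = one concentration per compound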
AF4-AF9 inh: blocks AF4 peptide binding to human AF9; inhibition, % at 10 µM; 0.47% of 350,000 active; AlphaScreen, biotin-AF4 peptide binding to FLAG-AF9; P42568;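 active = every replicate reaching a set inhibition limit, whatever the replicate mean, cut at about 25% in these data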
ARNT TACC3 PPI: disrupts binding between human ARNT and TACC3 | Q9Y6A5 | AlphaScreen His-ARNT PAS-B/GST-TACC3 binding, luminescence; TACC3 fragment carries E629A point mutation | inhibition, % at 9.99 µM | 0.66% of 390,000 active | AID 623870;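 active = mean inhibition of replicates at least 50% and at least half of replicates each reaching 50%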
E-sel inducer: E-selectin induction on HUVECs; HUVEC E-selectin immunofluorescence imaging; normalized: neutral wells 0, TNF-alpha wells 100; activation, % at 7.58 µM; P16581; 0.37% of 260,000 active; AID 686992;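 active = mean E-selectin-positive cell signal at least 10% of the positive control, reached in at least 60% of replicates, without over 20% cell loss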
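System: HUVEC / Compound: single concentration / Signal: immunofluorescence imaging / Read-out: percent E-selectin-positive cells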
ERAP1 inh: ERAP1 (human) enzyme inhibition. 0.15% of 340,000 active. AID 652197. Q9NZ08. inhibition, % at 10.7 µM. recombinant ERAP1, Leu-AMC fluorescence, 60 min;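 active = mean replicate inhibition of at least 30%, or all replicates individually reaching that 30% level; inactive = mean below 30% and not every replicate reaching it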
Hits are given with their value. Sampled rows, rich in hits. Any-hit rate of the full collection: about 1.3%.

Results for COc1ccc2c3c(n(C)c2c1)[C@@H](CO)N(CC1CC1)CC31CCN(C(=O)NC2CCCC2)CC1 ?
S100A4 MyoIIA: inactive; AF4-AF9 inh: inactive; E-sel inducer: inactive; ERAP1 inh: inactive

How did O=C(C[C@@H]1C[C@H]2c3cc(NC(=O)CC4CC4)ccc3O[C@H]2[C@H](CO)O1)NCCc1ccccc1 do in these assays?
UUG fidelity: inactive; S100A4 MyoIIA: inactive; AF4-AF9 inh: inactive; ARNT TACC3 PPI: inactive; E-sel inducer: inactive; ERAP1 inh: inactive

What do the screens show for `CCC(=O)N1C[C@H](C)[C@H](OC)CN(C)C(=O)c2ccc(NC(=O)COC)cc2OC[C@H]1C`?
S100A4 MyoIIA: inactive; AF4-AF9 inh: inactive; E-sel inducer: inactive; ERAP1 inh: inactive

How did C[C@@H]1CN([C@@H](C)CO)C(=O)c2cc(C#C[C@@H](C)O)cnc2O[C@H]1CN(C)C(=O)Cc1ccncc1 do in these assays?
S100A4 MyoIIA: 87.3; AF4-AF9 inh: inactive; ARNT TACC3 PPI: inactive; E-sel inducer: inactive; ERAP1 inh: inactive

Results for CN1CCN(C(=O)C[C@H]2CC[C@@H]3[C@H](COC[C@@H](O)CN3Cc3ccc4c(c3)OCO4)O2)CC1 ?
UUG fidelity: inactive; S100A4 MyoIIA: inactive; AF4-AF9 inh: inactive; ARNT TACC3 PPI: inactive; E-sel inducer: inactive; ERAP1 inh: inactive

How did CC1(C)CC2CC(C)(CN2C(=O)COC(=O)c2cc(Cl)cc(Cl)c2N)C1 (stereo not drawn) do in these assays?
UUG fidelity: inactive; S100A4 MyoIIA: inactive; AF4-AF9 inh: inactive; ARNT TACC3 PPI: 14.2; ERAP1 inh: inactive

How did CC1(C)CC2CC(C)(CN2C(=O)COC(=O)c2ccc(O)cc2O)C1 (stereo not drawn) do in these assays?
UUG fidelity: inactive; S100A4 MyoIIA: inactive; AF4-AF9 inh: inactive; ARNT TACC3 PPI: inactive; ERAP1 inh: inactive

How did CC(=O)NC(c1ccco1)c1ccc2cccnc2c1O (stereo not drawn) do in these assays?
UUG fidelity: inactive; S100A4 MyoIIA: inactive; ARNT TACC3 PPI: 63.2; ERAP1 inh: inactive

What do the screens show for `Cc1ccnc(NC(c2ccccc2)c2ccc3cccnc3c2O)c1` (stereo not drawn)?
UUG fidelity: inactive; S100A4 MyoIIA: inactive; AF4-AF9 inh: 29.2; ARNT TACC3 PPI: inactive; E-sel inducer: inactive; ERAP1 inh: inactive

Results for O=C(C[C@H]1C[C@@H]2c3cc(NC(=O)C4CCC4)ccc3O[C@@H]2[C@@H](CO)O1)NC1CCCCC1 ?
UUG fidelity: inactive; S100A4 MyoIIA: inactive; AF4-AF9 inh: inactive; ARNT TACC3 PPI: inactive; E-sel inducer: inactive; ERAP1 inh: inactive

Results for O=c1c2[nH]c3ccc(Br)cc3c2ncn1CCCn1ccnc1 ?
UUG fidelity: inactive; ARNT TACC3 PPI: 78.8

What do the screens show for `O=c1c2[nH]c3ccccc3c2ncn1CCCn1ccnc1`?
UUG fidelity: inactive; ARNT TACC3 PPI: inactive

What do the screens show for `CCOC(=O)N1CCN(CC(=O)Nc2sc(CC)cc2C(=O)c2ccc(OC)cc2)CC1`?
UUG fidelity: inactive; S100A4 MyoIIA: inactive; AF4-AF9 inh: 27.1; ARNT TACC3 PPI: inactive; E-sel inducer: inactive; ERAP1 inh: inactive

What do the screens show for `COc1cc(C2CC(=O)NC(SCC(=O)Nc3ccccc3C)=C2C#N)ccc1O` (stereo not drawn)?
UUG fidelity: inactive; ARNT TACC3 PPI: 67.8

Results for COCCCNC(=O)[C@]1(Cc2ccccc2N=[N+]=[N-])N=C(c2ccc(OCCCO)cc2)O[C@@H]1c1ccccc1 ?
UUG fidelity: inactive; S100A4 MyoIIA: inactive; AF4-AF9 inh: inactive; ARNT TACC3 PPI: inactive; ERAP1 inh: inactive

Results for CC1CN(Cc2cc(=O)oc3cc(O)c(Cl)cc23)CC(C)O1 (stereo not drawn) ?
UUG fidelity: inactive; S100A4 MyoIIA: inactive; AF4-AF9 inh: inactive; ARNT TACC3 PPI: inactive; ERAP1 inh: 60.4

How did CC1CCN(Cc2cc(=O)oc3cc(O)c(Cl)cc23)CC1 do in these assays?
UUG fidelity: inactive; S100A4 MyoIIA: inactive; AF4-AF9 inh: inactive; ARNT TACC3 PPI: inactive; E-sel inducer: inactive; ERAP1 inh: 59.6

How did Cc1ccc2oc(=O)cc(CN3CC(C)OC(C)C3)c2c1 (stereo not drawn) do in these assays?
UUG fidelity: inactive; S100A4 MyoIIA: inactive; AF4-AF9 inh: inactive; ARNT TACC3 PPI: inactive; ERAP1 inh: inactive

What do the screens show for `Cc1ccc(NC(=O)C(C)Sc2nc3nc(C)cc(C)n3n2)cc1` (stereo not drawn)?
UUG fidelity: inactive; S100A4 MyoIIA: inactive; AF4-AF9 inh: inactive; ARNT TACC3 PPI: inactive; E-sel inducer: inactive; ERAP1 inh: inactive

What do the screens show for `Cc1cc(C)n2nc(SC(C)C(=O)Nc3ccccc3F)nc2n1` (stereo not drawn)?
UUG fidelity: inactive; S100A4 MyoIIA: inactive; AF4-AF9 inh: inactive; ARNT TACC3 PPI: active; E-sel inducer: inactive; ERAP1 inh: inactive

What do the screens show for `COc1ccc(NC(=O)c2cn(-c3ccccc3)nc2-c2ccncc2)cc1`?
S100A4 MyoIIA: inactive; AF4-AF9 inh: inactive; ARNT TACC3 PPI: inactive; ERAP1 inh: inactive

How did COc1ccc(-c2nn(-c3ccccc3)cc2C(=O)NC(=S)NNC(=O)c2ccncc2)cc1 do in these assays?
UUG fidelity: inactive; S100A4 MyoIIA: inactive; AF4-AF9 inh: inactive; ARNT TACC3 PPI: 46.1; ERAP1 inh: inactive

Results for COc1ccc2c3c([nH]c2c1)[C@@H](CO)N(C(=O)CN(C)C)CC31CCN(CC2CCCCC2)CC1 ?
AF4-AF9 inh: inactive; E-sel inducer: inactive

What do the screens show for `C[C@@H]1CCCCO[C@H](CN(C)CC2CC2)[C@@H](C)CN([C@@H](C)CO)C(=O)c2cc(NS(=O)(=O)c3cccs3)ccc2O1`?
UUG fidelity: inactive; ARNT TACC3 PPI: inactive; E-sel inducer: inactive

What do the screens show for `CCCC(=O)Nc1ccc2c(c1)C(=O)N(C)C[C@@H](OC)[C@H](C)CN(C(=O)c1ccccc1F)[C@H](C)CO2`?
UUG fidelity: inactive; S100A4 MyoIIA: inactive; AF4-AF9 inh: inactive; ARNT TACC3 PPI: inactive; E-sel inducer: inactive; ERAP1 inh: inactive

How did O=C(Nc1ccccc1)N1CCCCN2[C@H](CO)[C@H](c3ccc(C#Cc4ccccn4)cc3)[C@H]2C1 do in these assays?
UUG fidelity: inactive; S100A4 MyoIIA: 90.7; AF4-AF9 inh: inactive; ARNT TACC3 PPI: 11.2; E-sel inducer: inactive; ERAP1 inh: inactive

What do the screens show for `O=C(Nc1ccc(F)cc1)N1CCCCN2[C@H](CO)[C@H](c3ccc(C#Cc4ccccn4)cc3)[C@H]2C1`?
UUG fidelity: inactive; S100A4 MyoIIA: 86.5; AF4-AF9 inh: inactive; ARNT TACC3 PPI: inactive; E-sel inducer: inactive; ERAP1 inh: inactive

What do the screens show for `O=C(Nc1ccccc1)N1CCCCN2[C@H](CO)[C@@H](c3ccc(C#CC4CC4)cc3)[C@@H]2C1`?
UUG fidelity: inactive; S100A4 MyoIIA: inactive; AF4-AF9 inh: inactive; ARNT TACC3 PPI: active; E-sel inducer: inactive; ERAP1 inh: inactive

What do the screens show for `CC(C)NC(=O)N(C)C[C@H]1Oc2ncc(-c3cncnc3)cc2C(=O)N([C@H](C)CO)C[C@@H]1C`?
E-sel inducer: inactive
